The entries are a selection whose mix differs from that of the whole data set. Active and inactive are the calls of the source.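 How the source made its calls: active means inhibition above about 70% (limit read from the data); inactive means the rest.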
Each molecule was assayed against 14-3-3 protein zeta/delta (Bos taurus) (UniProt P63103) (assay: disruptors of 14-3-3 zeta phospho-Bad complex – biochemical, TR-FRET, bovine 14-3-3 zeta, primary screen (AID 781;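 further: 0% = full 14-3-3 plus peptide FRET controls and 100% = background without 14-3-3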)). Conditions: TR-FRET 14-3-3zeta/Dy647-pBad peptide displacement, 1 h; at 21.7 µM; stronger effect = higher value.

Chains of the proteins cited; added tags and fusions are not shown.
UniProt P63103, whole entry: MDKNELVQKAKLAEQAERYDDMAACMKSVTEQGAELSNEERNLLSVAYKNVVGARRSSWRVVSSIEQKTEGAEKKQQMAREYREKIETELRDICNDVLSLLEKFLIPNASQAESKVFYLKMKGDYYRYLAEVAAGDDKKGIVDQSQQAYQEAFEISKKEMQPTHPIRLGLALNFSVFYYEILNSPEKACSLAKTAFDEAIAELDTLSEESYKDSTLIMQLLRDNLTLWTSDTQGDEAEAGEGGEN

Row | Structure (SMILES) | inhibition
1 | COc1ccc(C(=O)NCC2(N3CCCCC3)CCCCC2)c(OC)c1OC | inactive: 30.8%
2 | O=C(NCC1(N2CCOCC2)CCCCC1)c1cc2ccccc2o1 | inactive: 4.92%
3 | CCOC(=O)N1CCC(Nc2ccc(OC)cc2)CC1 | inactive: -14.2%
4 | O=C(OC1CN2CCC1CC2)C1c2ccccc2Oc2ccccc21 (centres undefined) | inactive: 20.3%
5 | N#CC1(Nc2ccccc2)CCN(Cc2ccccc2)CC1 | inactive: -1.4%
6 | CCOc1ccc(C)cc1CN(CCCl)CCCl | inactive: 6.15%
7 | COc1ccc(NC2CCN(CCc3ccccc3)CC2)c(OC)c1 | inactive: 29.3%
8 | Cc1ccc(OCC(C)C)c(CN(CCCl)CCCl)c1 | inactive: 4.1%
9 | O=C(NCC1(N2CCCCC2)CCCCC1)c1cccc([N+](=O)[O-])c1 | inactive: -8.24%
10 | N#CC1(Nc2ccccc2)CCN(CCc2ccccc2)CC1 | inactive: 9.78%
11 | COc1ccc(NC2CCN(C(=O)OC(C)(C)C)CC2)cc1 | inactive: -8.12%
12 | CN1CCN(CCOC(=O)C(O)(c2ccccc2)c2ccccc2)CC1 | inactive: -18.5%
13 | O=C(NCC1(N2CCOCC2)CCCCC1)c1cc(=O)[nH]c2ccccc12 | inactive: -6.46%
14 | CN(C)c1cccc(C(=O)NCC2(N3CCCCC3)CCCCC2)c1 | inactive: -7.91%
15 | COc1ccc(CN(CCCl)CCCl)cc1Cl | inactive: 2.13%
16 | CC(C)c1ccc(NC2CCN(C(=O)OC(C)(C)C)CC2)cc1 | inactive: -6.8%
17 | COc1ccc(C(=O)NCC2(N3CCOCC3)CCCCC2)cc1OC | inactive: -8.42%
18 | N/C(=N\O)c1c(N)no[n+]1[O-] | inactive: 12.5%
19 | O=C(OC1CN2CCC1CC2)C1c2ccccc2C=Cc2ccccc21 (centres undefined) | inactive: -8.53%
20 | N#Cc1ccc(C(=O)NCC2(N3CCCCC3)CCCCC2)cc1 | inactive: -5.53%
21 | c1ccc(CN2CCC(Nc3ccccc3)CC2)cc1 | inactive: -11.4%
22 | Fc1ccccc1NC1CCN(Cc2ccccc2)CC1 | inactive: 62.4%
23 | CCN1CCC(Nc2cccc(F)c2)CC1 | inactive: 47.7%
24 | CN(C)c1ccc(C(=O)NCC2(N3CCCCC3)CCCCC2)cc1 | inactive: -13.4%
25 | CCOc1ncccc1C(=O)NCC1(N2CCOCC2)CCCCC1 | inactive: 6.19%
26 | CC(C)(C)OC(=O)N1CCC(Nc2ccccc2)CC1 | inactive: -13%
27 | CCC(CO)(C(=O)OC1CN2CCC1CC2)c1ccccc1 (centres undefined) | inactive: -6.91%
28 | COc1cc(OC)cc(C(=O)NCC2(N3CCOCC3)CCCCC2)c1 | inactive: 4.26%
29 | CCCOc1ccc(C)cc1CN(CCCl)CCCl | inactive: 13.2%
